From patent US20240335443A1, “IMIDAZOLOPYRIDAZINE OR PYRAZOLOPYRIMIDINE COMPOUNDS AND COMPOSITIONS” (Anrui Biomedical Technology (Guangzhou) Co., Ltd., priority 2021, published 2024)

Sequences of proteins named here, by UniProt entry; tags and fusion partners are left off. Residues count along the entry.
UniProt P29597, 589-875 limits assumed: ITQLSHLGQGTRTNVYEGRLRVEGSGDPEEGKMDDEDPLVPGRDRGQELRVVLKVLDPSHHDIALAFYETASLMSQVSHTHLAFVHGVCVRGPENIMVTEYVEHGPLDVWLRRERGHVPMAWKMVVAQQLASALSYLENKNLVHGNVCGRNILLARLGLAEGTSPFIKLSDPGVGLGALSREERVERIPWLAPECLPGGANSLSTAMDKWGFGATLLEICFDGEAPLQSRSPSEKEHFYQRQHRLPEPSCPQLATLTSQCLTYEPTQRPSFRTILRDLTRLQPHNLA

Tests used:
[1] = test system: IL-23 induced STAT3 in HEK-Blue™ IL-23 cells; test: IL-23 induced STAT3 QUANTI-Blue reporter assay in HEK-Blue IL-23 cells; conditions: read-out: IL23 reporter assay (IC50 nM), IL-23 0.1 ng/mL, SEAP levels, class symbols
[2] = biological target: N-terminal His-tagged TYK2 pseudokinase domain (Homo sapiens, UniProt P29597); test: TYK2 JH2 domain SPA binding assay; conditions: read-out: TYK2 JH2 SPA Binding assay (IC50 nM); displacement of H3 probe (20 nM), 30 min room temperature; class symbols

| Structure (SMILES) | IC50 [1] [nM] | IC50 [2] [nM] |
| --- | --- | --- |
| [2H]C([2H])([2H])Nc1cc(Nc2cccn(-c3ccccn3)c2=O)nn2c(C(=O)N[C@@H]3C[C@H]4CCO[C@H]43)cnc12 (relative stereo) | 10 to 100 | 10 to 100 |
| CNc1cc(Nc2cccn(-c3ccccn3)c2=O)nc2c(C(=O)N[C@@H]3C[C@@H]4CCO[C@@H]43)cnn12 (relative stereo) | 100 to 1000 | > 1000 |
| [2H]C([2H])([2H])Nc1cc(Nc2cccn(-c3ccccn3)c2=O)nn2c(C(=O)N[C@@H]3C[C@@H]4CCO[C@@H]43)cnc12 (relative stereo) | 100 to 1000 | > 1000 |
